From patent US20260384438A1, “PYRROLOPYRIMIDINE CARBOXAMIDES” (published 2026)

Sequences of proteins named here, by UniProt entry; tags and fusion partners are left off. Residues count along the entry.
UniProt P24723, whole entry: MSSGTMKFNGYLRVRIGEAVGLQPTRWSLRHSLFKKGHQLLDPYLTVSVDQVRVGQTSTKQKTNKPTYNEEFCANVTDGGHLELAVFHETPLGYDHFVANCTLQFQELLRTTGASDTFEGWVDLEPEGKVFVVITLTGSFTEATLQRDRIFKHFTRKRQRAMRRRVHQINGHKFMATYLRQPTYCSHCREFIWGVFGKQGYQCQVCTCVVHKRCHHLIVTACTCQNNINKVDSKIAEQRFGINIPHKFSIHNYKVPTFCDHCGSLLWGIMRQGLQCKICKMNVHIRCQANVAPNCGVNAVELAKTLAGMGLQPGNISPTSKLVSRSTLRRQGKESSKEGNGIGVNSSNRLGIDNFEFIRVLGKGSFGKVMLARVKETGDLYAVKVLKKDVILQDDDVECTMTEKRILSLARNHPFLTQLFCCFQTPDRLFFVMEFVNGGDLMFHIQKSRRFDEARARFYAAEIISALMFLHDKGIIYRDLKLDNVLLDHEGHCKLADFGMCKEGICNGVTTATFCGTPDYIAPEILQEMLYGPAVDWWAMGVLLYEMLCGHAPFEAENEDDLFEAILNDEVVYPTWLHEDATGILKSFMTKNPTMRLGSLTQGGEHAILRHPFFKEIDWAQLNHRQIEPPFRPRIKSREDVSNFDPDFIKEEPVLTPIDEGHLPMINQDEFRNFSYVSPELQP
UniProt Q8N165, whole entry: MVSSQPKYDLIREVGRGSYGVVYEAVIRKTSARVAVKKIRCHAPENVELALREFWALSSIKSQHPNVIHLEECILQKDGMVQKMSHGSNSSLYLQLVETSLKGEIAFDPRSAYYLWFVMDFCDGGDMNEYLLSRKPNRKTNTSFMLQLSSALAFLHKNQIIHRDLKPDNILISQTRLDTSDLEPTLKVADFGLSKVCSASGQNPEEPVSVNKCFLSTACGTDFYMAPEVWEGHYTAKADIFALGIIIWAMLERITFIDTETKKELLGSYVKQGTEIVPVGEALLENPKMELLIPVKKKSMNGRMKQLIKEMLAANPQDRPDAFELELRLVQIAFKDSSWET
UniProt P11362, 22-822 limits assumed: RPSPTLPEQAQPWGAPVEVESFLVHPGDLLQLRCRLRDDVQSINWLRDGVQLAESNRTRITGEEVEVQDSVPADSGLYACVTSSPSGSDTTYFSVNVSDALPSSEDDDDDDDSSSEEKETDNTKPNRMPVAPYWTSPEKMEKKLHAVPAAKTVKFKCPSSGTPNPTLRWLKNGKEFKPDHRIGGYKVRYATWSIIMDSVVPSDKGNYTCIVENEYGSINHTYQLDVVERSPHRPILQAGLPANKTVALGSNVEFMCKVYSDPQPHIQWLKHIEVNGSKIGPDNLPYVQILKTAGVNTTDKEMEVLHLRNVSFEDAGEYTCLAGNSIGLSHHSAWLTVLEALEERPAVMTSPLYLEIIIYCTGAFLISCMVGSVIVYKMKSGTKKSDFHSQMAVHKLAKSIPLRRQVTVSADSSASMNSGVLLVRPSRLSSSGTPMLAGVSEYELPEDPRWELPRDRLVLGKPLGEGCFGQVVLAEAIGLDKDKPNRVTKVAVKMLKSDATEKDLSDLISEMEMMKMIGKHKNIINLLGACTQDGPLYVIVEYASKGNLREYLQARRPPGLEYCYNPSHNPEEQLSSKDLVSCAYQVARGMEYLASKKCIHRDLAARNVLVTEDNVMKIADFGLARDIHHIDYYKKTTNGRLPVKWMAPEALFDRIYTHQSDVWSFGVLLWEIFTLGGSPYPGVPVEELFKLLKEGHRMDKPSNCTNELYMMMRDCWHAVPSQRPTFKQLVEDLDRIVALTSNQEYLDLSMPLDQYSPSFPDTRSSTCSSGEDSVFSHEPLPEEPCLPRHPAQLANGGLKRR
UniProt P49137, whole entry: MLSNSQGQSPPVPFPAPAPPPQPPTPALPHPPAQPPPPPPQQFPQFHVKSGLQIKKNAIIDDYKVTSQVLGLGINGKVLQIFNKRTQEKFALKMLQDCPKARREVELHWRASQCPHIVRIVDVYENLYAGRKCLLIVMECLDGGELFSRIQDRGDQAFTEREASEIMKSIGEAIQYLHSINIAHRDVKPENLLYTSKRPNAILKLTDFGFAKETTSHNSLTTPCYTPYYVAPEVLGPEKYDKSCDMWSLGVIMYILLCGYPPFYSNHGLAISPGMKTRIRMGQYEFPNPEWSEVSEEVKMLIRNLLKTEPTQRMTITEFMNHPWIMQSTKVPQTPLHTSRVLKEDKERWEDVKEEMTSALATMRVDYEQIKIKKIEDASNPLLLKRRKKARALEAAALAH
UniProt Q9UK32, whole entry: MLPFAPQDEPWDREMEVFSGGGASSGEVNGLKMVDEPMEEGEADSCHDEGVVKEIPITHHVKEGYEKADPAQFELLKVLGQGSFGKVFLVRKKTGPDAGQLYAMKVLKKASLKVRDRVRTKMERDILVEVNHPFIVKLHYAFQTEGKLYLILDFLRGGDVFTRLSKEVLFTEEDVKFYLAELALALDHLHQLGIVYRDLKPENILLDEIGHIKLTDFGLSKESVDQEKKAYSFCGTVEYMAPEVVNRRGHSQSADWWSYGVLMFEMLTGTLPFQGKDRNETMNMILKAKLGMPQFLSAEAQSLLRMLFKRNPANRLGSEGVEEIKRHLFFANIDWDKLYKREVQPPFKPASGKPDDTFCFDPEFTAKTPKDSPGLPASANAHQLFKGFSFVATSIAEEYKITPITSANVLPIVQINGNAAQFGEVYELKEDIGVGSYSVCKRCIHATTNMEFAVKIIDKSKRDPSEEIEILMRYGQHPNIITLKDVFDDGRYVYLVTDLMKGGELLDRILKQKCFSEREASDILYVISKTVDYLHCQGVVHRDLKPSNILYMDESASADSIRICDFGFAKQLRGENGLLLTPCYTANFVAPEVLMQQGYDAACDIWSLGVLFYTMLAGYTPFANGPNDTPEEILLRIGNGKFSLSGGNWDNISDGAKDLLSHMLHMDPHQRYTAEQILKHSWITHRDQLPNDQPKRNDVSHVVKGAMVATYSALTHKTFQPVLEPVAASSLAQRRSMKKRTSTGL
UniProt P55263, whole entry: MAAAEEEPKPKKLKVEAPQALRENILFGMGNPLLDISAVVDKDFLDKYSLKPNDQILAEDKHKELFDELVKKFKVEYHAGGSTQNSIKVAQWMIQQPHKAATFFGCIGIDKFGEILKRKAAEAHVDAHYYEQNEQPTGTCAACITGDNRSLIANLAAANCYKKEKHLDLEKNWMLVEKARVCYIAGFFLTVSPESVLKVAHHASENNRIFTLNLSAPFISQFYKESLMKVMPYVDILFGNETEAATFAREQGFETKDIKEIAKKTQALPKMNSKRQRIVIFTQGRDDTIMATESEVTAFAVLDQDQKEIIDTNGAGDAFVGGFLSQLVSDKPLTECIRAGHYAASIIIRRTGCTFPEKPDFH
UniProt P49759, whole entry: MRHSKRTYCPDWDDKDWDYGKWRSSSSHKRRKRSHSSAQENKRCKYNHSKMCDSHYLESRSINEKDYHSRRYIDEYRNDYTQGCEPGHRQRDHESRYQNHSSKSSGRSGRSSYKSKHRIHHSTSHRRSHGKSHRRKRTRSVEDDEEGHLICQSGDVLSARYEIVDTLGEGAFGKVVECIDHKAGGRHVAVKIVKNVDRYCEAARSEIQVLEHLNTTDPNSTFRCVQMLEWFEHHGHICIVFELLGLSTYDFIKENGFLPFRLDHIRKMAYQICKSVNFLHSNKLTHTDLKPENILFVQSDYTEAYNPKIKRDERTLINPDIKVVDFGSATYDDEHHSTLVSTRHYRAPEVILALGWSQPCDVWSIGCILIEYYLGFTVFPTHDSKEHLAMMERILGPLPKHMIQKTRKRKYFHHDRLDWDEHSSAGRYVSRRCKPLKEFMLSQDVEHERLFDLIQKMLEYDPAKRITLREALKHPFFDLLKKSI
UniProt Q15569, whole entry: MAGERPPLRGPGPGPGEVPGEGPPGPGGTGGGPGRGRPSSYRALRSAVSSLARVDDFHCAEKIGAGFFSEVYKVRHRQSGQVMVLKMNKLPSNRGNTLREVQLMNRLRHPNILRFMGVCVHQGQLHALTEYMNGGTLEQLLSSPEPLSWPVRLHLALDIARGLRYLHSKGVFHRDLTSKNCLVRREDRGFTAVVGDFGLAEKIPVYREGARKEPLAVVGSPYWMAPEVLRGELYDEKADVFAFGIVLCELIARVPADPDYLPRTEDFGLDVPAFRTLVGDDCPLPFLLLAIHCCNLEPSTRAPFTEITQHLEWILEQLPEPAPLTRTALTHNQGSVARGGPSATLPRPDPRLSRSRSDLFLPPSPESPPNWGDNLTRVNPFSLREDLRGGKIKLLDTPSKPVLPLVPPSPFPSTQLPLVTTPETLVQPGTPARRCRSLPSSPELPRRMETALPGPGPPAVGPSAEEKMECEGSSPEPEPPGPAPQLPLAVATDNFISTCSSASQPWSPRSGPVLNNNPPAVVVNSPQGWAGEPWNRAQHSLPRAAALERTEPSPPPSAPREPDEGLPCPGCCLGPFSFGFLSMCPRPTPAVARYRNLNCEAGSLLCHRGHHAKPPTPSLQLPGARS
UniProt P29323, 19-1055 limits assumed: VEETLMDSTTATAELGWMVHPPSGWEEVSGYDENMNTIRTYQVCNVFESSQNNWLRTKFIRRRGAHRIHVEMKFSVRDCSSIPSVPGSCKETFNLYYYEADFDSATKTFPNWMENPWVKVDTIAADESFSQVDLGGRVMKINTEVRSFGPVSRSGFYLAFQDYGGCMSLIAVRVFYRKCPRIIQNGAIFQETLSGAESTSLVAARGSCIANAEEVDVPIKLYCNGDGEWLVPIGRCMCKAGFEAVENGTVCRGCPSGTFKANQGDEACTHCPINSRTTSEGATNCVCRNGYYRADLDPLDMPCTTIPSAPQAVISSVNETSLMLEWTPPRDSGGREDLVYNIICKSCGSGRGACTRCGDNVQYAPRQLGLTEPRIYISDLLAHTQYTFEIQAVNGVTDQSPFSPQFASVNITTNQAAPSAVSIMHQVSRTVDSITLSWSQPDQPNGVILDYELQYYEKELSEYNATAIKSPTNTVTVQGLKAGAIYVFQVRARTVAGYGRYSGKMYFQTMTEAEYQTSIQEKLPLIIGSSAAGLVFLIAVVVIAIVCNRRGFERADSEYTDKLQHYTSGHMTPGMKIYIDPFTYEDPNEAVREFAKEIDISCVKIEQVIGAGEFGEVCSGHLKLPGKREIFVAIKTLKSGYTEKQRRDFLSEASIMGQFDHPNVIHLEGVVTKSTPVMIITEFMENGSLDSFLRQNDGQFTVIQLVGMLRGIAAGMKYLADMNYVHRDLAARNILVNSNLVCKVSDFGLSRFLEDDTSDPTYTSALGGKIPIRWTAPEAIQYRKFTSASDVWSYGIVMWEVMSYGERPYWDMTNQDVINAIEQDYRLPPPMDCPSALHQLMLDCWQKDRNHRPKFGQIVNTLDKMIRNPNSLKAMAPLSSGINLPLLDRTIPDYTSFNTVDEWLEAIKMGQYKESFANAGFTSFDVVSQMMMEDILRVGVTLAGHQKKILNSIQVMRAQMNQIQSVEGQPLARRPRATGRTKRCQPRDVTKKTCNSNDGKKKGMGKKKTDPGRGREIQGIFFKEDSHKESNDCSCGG
UniProt Q13232, whole entry: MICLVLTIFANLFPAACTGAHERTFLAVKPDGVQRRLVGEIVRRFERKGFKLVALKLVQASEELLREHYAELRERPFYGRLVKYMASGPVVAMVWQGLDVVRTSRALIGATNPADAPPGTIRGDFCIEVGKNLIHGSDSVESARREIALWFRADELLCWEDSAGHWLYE
UniProt Q13164, whole entry: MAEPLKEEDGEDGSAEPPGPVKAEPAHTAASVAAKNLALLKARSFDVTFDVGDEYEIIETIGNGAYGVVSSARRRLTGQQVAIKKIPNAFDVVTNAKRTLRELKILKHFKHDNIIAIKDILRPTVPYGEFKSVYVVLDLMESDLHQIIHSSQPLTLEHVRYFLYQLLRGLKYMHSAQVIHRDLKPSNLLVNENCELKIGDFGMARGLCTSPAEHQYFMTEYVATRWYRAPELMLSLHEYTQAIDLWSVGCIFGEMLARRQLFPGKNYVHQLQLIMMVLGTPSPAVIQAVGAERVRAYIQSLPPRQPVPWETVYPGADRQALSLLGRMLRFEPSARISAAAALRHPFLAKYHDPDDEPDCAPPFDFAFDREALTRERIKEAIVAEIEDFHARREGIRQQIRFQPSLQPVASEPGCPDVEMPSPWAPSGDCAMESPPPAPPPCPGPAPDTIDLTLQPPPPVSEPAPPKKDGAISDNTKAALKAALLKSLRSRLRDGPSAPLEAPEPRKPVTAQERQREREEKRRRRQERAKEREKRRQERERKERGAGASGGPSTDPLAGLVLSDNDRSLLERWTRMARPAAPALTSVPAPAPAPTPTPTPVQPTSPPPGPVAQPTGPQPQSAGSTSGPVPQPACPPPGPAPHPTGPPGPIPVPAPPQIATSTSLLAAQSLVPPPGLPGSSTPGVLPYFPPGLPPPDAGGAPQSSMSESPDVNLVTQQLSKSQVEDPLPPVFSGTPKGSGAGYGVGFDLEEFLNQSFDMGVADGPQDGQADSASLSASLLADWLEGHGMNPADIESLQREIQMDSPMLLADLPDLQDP

Legend:
Assay in all cases: KAT chemical proteomics
STK4 = STK4 (Homo sapiens, UniProt Q13043)
YES1 = YES1 (Homo sapiens, UniProt P07947)
ULK4 = ULK4 (Homo sapiens, UniProt Q96C45)
EPHA2 = EPHA2 (Homo sapiens, UniProt P29317)
STK38L = STK38L (Homo sapiens, UniProt Q9Y2H1)
PRKCH = PRKCH (Homo sapiens, UniProt P24723)
LATS1 = LATS1 (Homo sapiens, UniProt O95835)
NTRK1 = NTRK1 (Homo sapiens, UniProt P04629)
EPHA5 = EPHA5 (Homo sapiens, UniProt P54756)
HIPK3 = HIPK3 (Homo sapiens, UniProt Q9H422)
CCNH = test system: CCNH
PDIK1L = PDIK1L (Homo sapiens, UniProt Q8N165)
ERN2 = ERN2 (Homo sapiens, UniProt Q76MJ5)
FGFR1 = FGFR1 (Homo sapiens, UniProt P11362)
MYLK3 = MYLK3 (Homo sapiens, UniProt Q32MK0)
WEE1 = WEE1 (Homo sapiens, UniProt P30291)
PIM2 = PIM2 (Homo sapiens, UniProt Q9P1W9)
CAMK2A = CAMK2A (Homo sapiens, UniProt Q9UQM7)
CASK = CASK (Homo sapiens, UniProt O14936)
MAPKAPK2 = MAPKAPK2 (Homo sapiens, UniProt P49137)
RPS6KA6 = RPS6KA6 (Homo sapiens, UniProt Q9UK32)
CDKL5 = CDKL5 (Homo sapiens, UniProt O76039)
HTATIP2 = HTATIP2 (Homo sapiens, UniProt Q9BUP3)
ADK = ADK (Homo sapiens, UniProt P55263)
CLK1 = CLK1 (Homo sapiens, UniProt P49759)
ACVR1B = ACVR1B (Homo sapiens, UniProt P36896)
PIP4K2C = PIP4K2C (Homo sapiens, UniProt Q8TBX8)
TESK1 = TESK1 (Homo sapiens, UniProt Q15569)
MKNK2 = MKNK2 (Homo sapiens, UniProt Q9HBH9)
EPHB2 = EPHB2 (Homo sapiens, UniProt P29323)
CDK16 = CDK16 (Homo sapiens, UniProt Q00536)
STK25 = STK25 (Homo sapiens, UniProt O00506)
RIPK2 = RIPK2 (Homo sapiens, UniProt O43353)
EPHB6 = EPHB6 (Homo sapiens, UniProt O15197)
CDK5 = CDK5 (Homo sapiens, UniProt Q00535)
NME3 = NME3 (Homo sapiens, UniProt Q13232)
AAK1 = AAK1 (Homo sapiens, UniProt Q2M2I8)
MAPK7 = MAPK7 (Homo sapiens, UniProt Q13164)
TP53RK = TP53RK (Homo sapiens, UniProt Q96S44)
IKBKB = IKBKB (Homo sapiens, UniProt O14920)

`Cc1nc(C(F)(F)F)c2c(C(N)=O)c(N)n(-c3c(C)ccc(O)c3C)c2n1` (single isomer, unassigned) was tested, and the RB50 (STK4) was >50 µM, the RB50 (YES1) was >50 µM and the RB50 (ULK4) was >50 µM. For the same compound, the RB50 (EPHA2) was 48.5 nM, the RB50 (STK38L) was >50 µM and the RB50 (PRKCH) was >50 µM. The RB50 (LATS1) was >50 µM, the RB50 (NTRK1) was >50 µM and the RB50 (EPHA5) was 168 nM. For the same compound, the RB50 (HIPK3) was >50 µM, the RB50 (CCNH) was 1.1 µM and the RB50 (PDIK1L) was >50 µM. The RB50 (ERN2) was >50 µM, the RB50 (FGFR1) was >50 µM and the RB50 (MYLK3) was >50 µM. For the same compound, the RB50 (WEE1) was 361 nM, the RB50 (PIM2) was >50 µM and the RB50 (CAMK2A) was >50 µM. The RB50 (CASK) was >50 µM, the RB50 (MAPKAPK2) was >50 µM and the RB50 (RPS6KA6) was >50 µM. The RB50 (CDKL5) was 250 nM, the RB50 (HTATIP2) was >50 µM and the RB50 (ADK) was >50 µM. For the same compound, the RB50 (CLK1) was 291 nM, the RB50 (ACVR1B) was 20.7 nM and the RB50 (PIP4K2C) was >50 µM. For the same compound, the RB50 (TESK1) was >50 µM, the RB50 (MKNK2) was >50 µM and the RB50 (EPHB2) was 176 nM. The RB50 (CDK16) was >50 µM, the RB50 (STK25) was >50 µM and the RB50 (RIPK2) was >50 µM. The RB50 (EPHB6) was >50 µM, the RB50 (CDK5) was >50 µM and the RB50 (NME3) was >50 µM. For the same compound, the RB50 (AAK1) was >50 µM, the RB50 (MAPK7) was >50 µM and the RB50 (TP53RK) was >50 µM. The RB50 (IKBKB) was >50 µM.
